The values that follow come from US10183937B2, “1,3-thiazol-2-yl substituted benzamides” (BAYER AKTIENGESELLSCHAFT, priority 2014, dated 2019).

By UniProt entry, the sequences of proteins in these tests, tags left out. Where a name states a change or a piece, a line headed by the entry shows the natural chain unless it says otherwise.
UniProt P56373: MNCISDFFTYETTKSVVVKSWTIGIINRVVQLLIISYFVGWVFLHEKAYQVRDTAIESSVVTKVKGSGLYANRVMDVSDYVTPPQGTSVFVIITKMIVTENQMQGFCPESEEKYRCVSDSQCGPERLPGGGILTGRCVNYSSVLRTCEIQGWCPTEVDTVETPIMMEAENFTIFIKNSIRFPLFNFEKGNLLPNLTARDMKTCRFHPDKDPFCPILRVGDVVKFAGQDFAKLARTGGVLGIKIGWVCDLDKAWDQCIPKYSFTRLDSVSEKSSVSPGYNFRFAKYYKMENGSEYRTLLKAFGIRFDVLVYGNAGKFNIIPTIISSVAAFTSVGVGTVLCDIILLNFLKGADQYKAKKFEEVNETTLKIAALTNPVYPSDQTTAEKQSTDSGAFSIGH

Broadly, the IC50 is the concentration needed to halve the response being measured.

The target of the experiment is human P2X3 receptor (Homo sapiens (Human), UniProt P56373).

As to `Cc1cnc(-c2cc(OC3CCN(C)C(C(F)(F)F)C3)cc(C(=O)N[C@H](C)c3cnc(C(F)(F)F)nc3)c2)s1` (single isomer, unassigned) [Example 223], it took 3 nM to reach half-maximal inhibition (IC50).
